This note sets out measurements from patent US20160081312A1, “MODEL OF ALZHEIMER'S DISEASE” (priority 2013, published 2016).

The structures appear in SMILES notation.

In experiment [1] the test system is APP. Nature of the experiment: APP level in rat brain cortex and hippocampus, western blotting. It is filed as in vivo, wistar rat. As to conditions: omega-3 fatty acid (EPA 90 mg/Kg + DHA 60 mg/Kg) or α-tocopherol 100 mg/Kg, oral, with 10X-MM to P-60. The procedure:
(§1) All animal-handling procedures were carried out in accordance with the current regulations of the Indian Institute of Toxicology Research Animal Ethics Committee, and with its prior approval for using the animals. The pregnant female wistar rats were housed in a 12-h […] cycle environment with ad libitum diet and water. The rats were divided into six groups (n=30 per group), gavage-treated with the metal mixture (Table 1). The metal mixture treatment was at two concentrations (1× and 10×; Groups 1-3, Table 1) for dose-dependent study. To identify the synergistic nature, the animals were treated in mixture as well as individually with the metals (Group 1-6 of Table 1). The heavy metals were As, Cd and Pb, fed in the form of NaAsO2, CdCl2 and Pb(C2H3O2)2, respectively, in Milli Q water. The NaAsO2, and CdCl2 readily dissolved in water, while Pb(C2H3O2)2 was dissolved by adding 0.043% acetic acid in water. […]
(§2) Tissues of the cerebral cortex and hippocampus from five to seven postnatal wistar rats were harvested, snap-frozen in liquid nitrogen, and stored at −80° C. until further investigation. […] The samples were detected by chemiluminescence with super signal west femto max substrate. Relative expression of each protein was determined by densitometric quantification of blots using VersaDoc Gel Imaging System (BioRad, Hercules, CF). […]

The next experiment relates to Aβ. Nature of the experiment: Aβ level in cultured rat neurons and astrocytes. It is filed as cell-based, wistar rat. The conditions noted are these: metal mixture-induced, memantine 5 μM, donepezil 10 μM, docosahexaenoic acid 10 μM, α-tocopherol 10 μM. On the procedure:
(§3) The pregnant wistar rats were sacrificed by cervical dislocation and the embryos were removed on the 16th day of gestation. The embryonic brain tissues were mechanically dissociated into individual cells in dissection media containing Glucose (1M), sucrose (1 M), HEPES Buffer (1M) and Hank's salt (1×). The resulting cells were centrifuged (1,500 rpm, 5 min), resuspended in NEUROBASAL medium containing B-27 supplement (Invitrogen, Carlsbad, Calif.), L-glutamine (0.5 mM), penicillin (100 U/ml) and streptomycin (100 μg/ml) and plated into 60 mm dishes. The culture media was changed every 2 days. Greater than 90% of the cells in these cultures were neurons as assessed by cell morphology and immunostaining with rabbit monoclonal antibodies against MAP-2 (1:100).
(§4) The astrocytes from rat brain were isolated and cultured. […] The cells reached confluence at 7 days after subculture, and at this point, more than 95-97% of cells were GFAP-positive astrocytes, as determined by the immunofluorescence staining. […]
(§5) The astrocytes and neurons were treated, washed with PBS and suspended in 100 μl of CelLytic™ MT Cell Lysis Reagent protease inhibitor cocktail (a mixture of 4-(2-aminoethyl)benzenesulfonyl fluoride, pepstatinA, E-64, bestatin, leupeptin, and aprotinin)] and kept on ice for 20 min. […] The samples were detected by chemiluminescence with super signal west femto max substrate. […]

Experiment [2] has as its system APP. Nature of the experiment: APP level in cultured rat neurons and astrocytes. It is filed as cell-based, wistar rat. The conditions noted are these: metal mixture-induced, memantine 5 μM, donepezil 10 μM, docosahexaenoic acid 10 μM, α-tocopherol 10 μM. On the procedure: as §3, §4, §5
The subject of a further experiment is Aβ-42. Nature of the experiment: Aβ-42 level in rat brain cortex and hippocampus, western blotting. As to conditions: omega-3 fatty acid (EPA 90 mg/Kg + DHA 60 mg/Kg) or α-tocopherol 100 mg/Kg, oral, with 10X-MM to P-60. It is filed as in vivo, wistar rat. The procedure:
as §1, §2

Turning to `Cc1c(C)c2c(c(C)c1O)CC[C@@](C)(CCC[C@H](C)CCC[C@H](C)CCCC(C)C)O2` [α-tocopherol], the “effect on APP in the non-transgenic wistar rat model of AD” value in the experiment on APP [1] is listed as “suppress”. The “Fold reduction in Aβ” value with Aβ came out at 1.9 ± 0.0192 fold. For the same compound, the “Fold reduction in APP” value with APP [2] is recorded as 1.3 ± 0.0493 fold. Further, the “effect on Aβ1-42 in the non-transgenic wistar rat model of AD” value with Aβ-42 is on record as “suppress”.
